Paper PMC4722750

Tested on: P05067
Test: SEC + native gel or EMSA; peptide (5 μM) in medium taken from human cerebral VSMC cultures after 30 min at 37 °C; Superdex 200 10/300, 1 mL/min, FPLC; Aβ fractions found by ELISA, then SDS- and native-PAGE with Western blot (82E1)

Substance | percent in higher order, SDS soluble aggregates
Aβ_(1-42) | < 15-20%
Aβ_(1-40) | <10%
